Measurements reported in patent US20170360875A1 (priority 2014, published 2017).

test system: FcγIIa (R131 allele); test: Reverse ELISA: inhibition of FcR binding to PAP immune complex, FcγIIa (R131 allele); details: PAP pre-incubated 1 h with peptide; no inhibitor 1.599

Molecule	OD405 FcγIIa (R131 allele)
CC(C)C[C@@H]1NC(=O)[C@H](Cc2c[nH]cn2)NC(=O)[C@H](Cc2c[nH]c3ccccc23)NC(=O)[C@H](C)NC(=O)[C@@H](NC(=O)[C@H](CC(=O)O)NC(=O)[C@@H]2CCCN2C(=O)[C@@H]2CCCN2C(=O)[C@H](C)N)CSSC[C@@H](C(=O)N[C@H](C(=O)O)[C@@H](C)O)NC(=O)[C@H](Cc2c[nH]c3ccccc23)NC(=O)[C@H](C(C)C)NC(=O)[C@H](CC(C)C)NC(=O)[C@H](CCC(=O)O)NC(=O)CNC1=O [SEQ ID NO:20]	0.509
Ala-Pro-Pro-Cys-Ala-Arg-His-Leu-Gly-Glu-Leu-Val-Trp-Cys-Thr	0.956
Ala-Pro-Pro-Cys-Ala-Phe-His-Leu-Gly-Glu-Leu-Val-Trp-Cys-Thr	0.605
Ala-Pro-Pro-Cys-Ala-Trp-His-Leu-Gly-Glu-Leu-Val-Trp-Cys-Thr	0.658
Asp-Cys-Ala-Phe-His-Leu-Gly-Glu-Leu-Val-Trp-Cys-Thr	0.660
Asp-Cys-Ala-Trp-His-Leu-Gly-Glu-Leu-Val-Trp-Cys-Thr	0.561

same assay, conditions: overall across FcγIIa, FcγIIb and FcγIIIa of Table 2

Molecule	overall inhibition of FcR binding to PAP (rank in words)
CC(C)C[C@@H]1NC(=O)[C@H](Cc2c[nH]cn2)NC(=O)[C@H](Cc2c[nH]c3ccccc23)NC(=O)[C@H](C)NC(=O)[C@@H](NC(=O)[C@H](CC(=O)O)NC(=O)[C@@H]2CCCN2C(=O)[C@@H]2CCCN2C(=O)[C@H](C)N)CSSC[C@@H](C(=O)N[C@H](C(=O)O)[C@@H](C)O)NC(=O)[C@H](Cc2c[nH]c3ccccc23)NC(=O)[C@H](C(C)C)NC(=O)[C@H](CC(C)C)NC(=O)[C@H](CCC(=O)O)NC(=O)CNC1=O [SEQ ID NO:20]	greatest overall inhibition of FcR binding to PAP
